# Data from article PMC7101055 (ACS Chemical Neuroscience, 2020).
# Protein sequences, listed by entry. Tags and fused reporters are not part of them.
# UniProt P61168, whole entry: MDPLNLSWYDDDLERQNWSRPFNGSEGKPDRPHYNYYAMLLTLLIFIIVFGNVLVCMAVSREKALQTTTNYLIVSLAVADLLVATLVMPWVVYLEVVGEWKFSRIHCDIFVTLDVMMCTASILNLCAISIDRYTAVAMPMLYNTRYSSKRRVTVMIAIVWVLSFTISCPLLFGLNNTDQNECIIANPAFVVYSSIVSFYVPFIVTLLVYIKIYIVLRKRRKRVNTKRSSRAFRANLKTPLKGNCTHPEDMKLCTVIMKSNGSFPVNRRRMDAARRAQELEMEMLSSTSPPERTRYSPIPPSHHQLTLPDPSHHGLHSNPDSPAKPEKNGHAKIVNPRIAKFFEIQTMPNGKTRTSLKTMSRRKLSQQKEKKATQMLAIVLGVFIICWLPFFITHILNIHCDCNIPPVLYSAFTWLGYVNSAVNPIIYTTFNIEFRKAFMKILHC
# Biological target: D2 receptors on substantia nigra dopamine neurons (Mus musculus, UniProt P61168)
# Format: cell-based
structure (smiles),measurement,setting,value
COC(=O)[C@H]1[C@@H](OC(=O)c2ccccc2)C[C@@H]2CC[C@H]1N2C [cocaine],effect on CyHQ-O-DA flash response,cocaine (3 μM) added to CyHQ-O-DA (150 μM),increased in amplitude and duration
same,current produced by cocaine itself,due to spontaneously released dopamine no longer transported,produced a small current
